Measured values from patent US20230227534A1, “METHOD FOR GENERATING VARIANTS OF A PROTEIN” (ECOLE POLYTECHNIQUE FEDERALE DE LAUSANNE (EPFL), priority 2019, published 2023).

Protein sequences, listed by entry. Tags and fused reporters are not part of them. Lines headed by an entry give the natural chain unless they say otherwise; changes in a name come on top.
UniProt P14416: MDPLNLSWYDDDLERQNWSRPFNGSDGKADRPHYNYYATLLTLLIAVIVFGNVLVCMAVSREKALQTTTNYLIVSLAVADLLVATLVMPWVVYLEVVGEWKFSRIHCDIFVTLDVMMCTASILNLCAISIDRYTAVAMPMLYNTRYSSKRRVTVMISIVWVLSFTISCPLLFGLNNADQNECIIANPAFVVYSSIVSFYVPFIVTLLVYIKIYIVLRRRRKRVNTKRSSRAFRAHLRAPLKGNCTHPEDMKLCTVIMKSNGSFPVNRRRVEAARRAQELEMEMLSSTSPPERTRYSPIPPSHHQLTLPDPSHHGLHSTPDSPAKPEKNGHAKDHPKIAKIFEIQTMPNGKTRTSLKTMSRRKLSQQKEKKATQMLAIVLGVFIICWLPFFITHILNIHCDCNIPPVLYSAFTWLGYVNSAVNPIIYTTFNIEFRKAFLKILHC

Molecular target: T1, D2 receptor (Homo sapiens, UniProt P14416, T205I)
T1 construct: made in house; host or cells: HEK293T (receptor, transient transfection, anti-HA partial purification); Sf9 (Gi2)
Test: in vitro measurements of D2 activation (constitutive time course; agonist induced dose response)
Assay type: biochemical
Conditions: ligand free, FIG. 1 top panel
Text: Regarding the T205I mutation, since ΔG-stability/ΔΔEs >0, the protein obtained by the method of the invention should have an increased constitutive activity compared to the native receptor. […] Therefore, the present invention allows to generate a D2 receptor stabilized in specific states, here in state A.
Regarding the T205M mutation, since ΔG-coupling/ΔΔEc >0, the protein obtained by the method of the invention should have a higher sensitivity for the ligand binding (ligand = dopamine and serotonin).
G protein activation assays. D2DR variants were assayed for their ability to induce guanine nucleotide exchange by the G protein Gi2. To measure constitutive activity the reaction mixture consisted of 4 uM Gi2, 20 uM of [^35S]-GTPγS mix, 50 mM Tris-HCI, pH 7.2, 100 mM NaCl, 4 mM MgCl2, 1 mM dithiothreitol. Receptor concentrations were ~10 nM per sample. Reactions were started by adding 150 uL partially purified receptor samples to 300 uL of reaction mixture and incubating on ice over a period of time from 0-30 minutes for timecourse measurements. To measure ligand induced D2DR activities, increasing amounts of dopamine or spiperone were added to the reaction mixtures. […] Radioactivity counts were measured on a Beckman LS6000 scintillation counter. Statistical significance of differences in constitutive or ligand-induced activities was assessed by student t-tests.

B1: T205I: dopamine D2 receptor variant, Threonine 205 to Isoleucine, stability microswitch (protein)
chain: MYPYDVPDYAYPYDVPDYAYPYDVPDYADDPLNLSWYDDDLERQNWSRPFNGSDGKADRPHYNYYATLLTLLIAVIVFGNVLVCMAVSREKALQTTTNYLIVSLAVADLLVATLVMPWVVYLEVVGEWKFSRIHCDIFVTLDVMMCTASILNLCAISIDRYTAVAMPMLYNTRYSSKRRVTVMISIVWVLSFTISCPLLFGLNNADQNECIIANPAFVVYSSIVSFYVPFIVILLVYIKIYIVLRRRRKRVNTKRSSRAFRAHLRAPLKGNCTHPEDMKLCTVIMKSNGSFPVNRRRVEAARRAQELEMEMLSSTSPPERTRYSPIPPSHHQLTLPDPSHHGLHSTPDSPAKPEKNGHAKDHPKIAKIFEIQTMPNGKTRTSLKTMSRRKLSQQKEKKATQMLAIVLGVFIICWLPFFITHILNIHCDCNIPPVLYSAFTWLGYVNSAVNPIIYTTFNIEFRKAFLKILHC
  constitutive activity compared to the native receptor: increased
